Experimental data reported in patent publication US20240175027A1 (Regeneron, published 2024).

Molecular target: T1, complement component C5 (UniProt P01031 19-1676, limits assumed)
T1 construct: Mature C5 is a disulfide-linked alpha/beta heterodimer made from one precursor; also called complement factor 5 (C5) protein
Test: in vitro complex size study; Pozelimab added to pre-formed Eculizumab*:C5 complexes, Pozelimab in excess (5:1:1 pozelimab:eculizumab*:C5)

B1: Pozelimab (antibody, V domains shown)
VH: QVQLQESGPGLVKPSETLSLTCTVSGDSVSSSYWTWIRQPPGKGLEWIGYIYYSGSSNYNPSLKSRATISVDTSKNQFSLKLSSVTAADTAVYYCAREGNVDTTMIFDYWGQGTLVTVSS
VL: AIQMTQSPSSLSASVGDRVTITCRASQGIRNDLGWYQQKPGKAPKLLIYAASSLQSGVPSRFAGRGSGTDFTLTISSLQPEDFATYYCLQDFNYPWTFGQGTKVEIKR
For B1, the “percent of complexes that were trimeric or pentameric (2:1 or 3:2 mAb:C5 molar ratios)” value was ~86%.
